Reference: PMC8308721 (Pharmaceutics, 2021)

The chains behind the UniProt entries cited, without tags or fusion partners.
UniProt P41143, whole entry: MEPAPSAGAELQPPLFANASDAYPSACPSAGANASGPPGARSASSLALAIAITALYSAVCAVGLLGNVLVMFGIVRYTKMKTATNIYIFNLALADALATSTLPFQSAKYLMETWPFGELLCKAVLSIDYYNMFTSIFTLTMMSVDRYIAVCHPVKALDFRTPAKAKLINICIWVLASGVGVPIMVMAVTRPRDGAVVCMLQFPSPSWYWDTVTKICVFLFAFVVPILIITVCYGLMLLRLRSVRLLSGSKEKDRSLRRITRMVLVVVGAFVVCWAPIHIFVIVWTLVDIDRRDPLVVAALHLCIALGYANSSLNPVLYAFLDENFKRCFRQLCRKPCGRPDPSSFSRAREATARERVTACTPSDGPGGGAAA

tested on: female CD-1 mice; experiment: Safety test in mice, escalating doses; type: in vivo, mouse; details: 650 mg/kg vs 13 mg/kg

Row | Compound | maximum deliverable dose relative to effective dose (13 mg/kg)
1 | CC(C)C[C@H](NC(=O)[C@H](Cc1ccccc1)NC(=O)CNC(=O)CNC(=O)[C@H](Cc1ccc(O)cc1)NC(=O)C(C)(C)C)C(=O)O | 50 fold

biological target: human DOR (Homo sapiens, UniProt P41143); experiment: not given; details: analog at 6 nM, [3H]DADLE displacement

Row | Compound | Relative Binding to DOR Compared to Leu-ENK [%]
2 | CC(C)C[C@H](NC(=O)[C@H](Cc1ccccc1)NC(=O)CNC(=O)CNC(=O)[C@H](Cc1ccc(O)cc1)NC(=O)C(C)(C)C)C(=O)O | 68% and 68 ± 2%
3 | COC(=O)[C@H](CC(C)C)NC(=O)[C@H](Cc1ccccc1)NC(=O)CNC(=O)CNC(=O)[C@H](Cc1ccc(O)cc1)NC(C)=O [KK-14] | 38 ± 4%
4 | CCCCCC(=O)N[C@@H](Cc1ccc(O)cc1)C(=O)NCC(=O)NCC(=O)N[C@@H](Cc1ccccc1)C(=O)N[C@@H](CC(C)C)C(=O)OC [KK-93] | 33 ± 11%
5 | COC(=O)[C@H](CC(C)C)NC(=O)[C@H](Cc1ccccc1)NC(=O)CNC(=O)CNC(=O)[C@H](Cc1ccc(O)cc1)NC(=O)C(C)(C)C [KK-102] | 70% and 70 ± 1% and 70 ± 11%
6 | C=CCCC(=O)N[C@@H](Cc1ccc(O)cc1)C(=O)NCC(=O)NCC(=O)N[C@@H](Cc1ccccc1)C(=O)N[C@@H](CC(C)C)C(=O)OC [KK-105] | 59 ± 22%

tested on: not listed separately; experiment: pooled human cerebrospinal fluid (CSF); details: 37 °C, up to 300 min

Row | Compound | not cleaved
7 | R^1HN-YGGFL-COOR^2 | more than 95% after 5 h

tested on: not listed separately; experiment: pooled mouse dipotassium ethylenediaminetetraacetic acid containing pooled plasma; details: 37 °C, up to 300 min

Row | Compound | not cleaved | cleaved bond
8 | R^1HN-YGGFL-COOR^2 | more than 90% of intact KK-103 after 5 h | –
9 | R^1HN-YGGFL-COOR^2 [KK-14] | – | C-terminal methyl ester was rapidly hydrolyzed, first_seen, within minutes
10 | R^1HN-YGGFL-COOR^2 [KK-82] | – | C-terminal methyl ester was rapidly hydrolyzed, first_seen, within minutes; also recorded: Tyr-Gly; also recorded: Gly-Phe
11 | R^1HN-YGGFL-COOR^2 [KK-93] | – | C-terminal methyl ester was rapidly hydrolyzed, first_seen, within minutes
12 | R^1HN-YGGFL-COOR^2 [KK-102] | – | C-terminal methyl ester was rapidly hydrolyzed, first_seen, within minutes
13 | R^1HN-YGGFL-COOR^2 [KK-105] | – | C-terminal methyl ester was rapidly hydrolyzed, first_seen, within minutes
14 | R^1HN-YGGFL-COOR^2 [KK-108] | – | C-terminal methyl ester was rapidly hydrolyzed, first_seen, within minutes
15 | R^1HN-YGGFL-COOR^2 [KK-112] | – | C-terminal methyl ester was rapidly hydrolyzed, first_seen, within minutes

Where “and” joins values, the source holds several entries; their conditions need not be identical. Equal entries are not always repeated. Entries after “also recorded” stand apart in the source; their conditions may differ.
